Results published in PMC2952073 (Bioorganic & medicinal chemistry, 2010).

Key:
[1] = Parallel artificial membrane permeability assay; assay type: in vitro ADME; conditions: PAMPA, pH7.4
[2] = test system: Gli2-mediated transcription (mGli2); assay: Gli-Luc reporter assay in C3H10T1/2 cells transfected with Gli2; assay type: cell-based; conditions: Mus musculus, C3H 10T1/2, read-out: IC50, Gli2-mediated transcription

average P [1]	IC50 [2]	Structure (SMILES)
5.5 ×10⁻⁶ cm/s	–	CNC(=C[N+](=O)[O-])NCCSCc1ccc(CN(C)C)o1 [ranitidine]
–	21 µM	CCCN(C(=O)C(C)c1cccc(C(=O)c2ccccc2)c1)c1ccc2[nH]ccc2c1 (stereo not drawn) [compound 42, 2-(3-Benzoylphenyl)-N-(1H-indol-5-yl)-N-propylpropanamide]
–	29 µM	CCCN(C(=O)C(C)c1cccc(C(=O)c2ccccc2)c1)c1ccc2cc[nH]c2c1 (stereo not drawn) [compound 33, 2-(3-Benzoylphenyl)-N-(1H-indol-6-yl)-N-propylpropanamide]
